Assay results taken from ChEMBL document CHEMBL3817778, “Small molecules targeting Mcl-1: the search for a silver bullet in cancer therapy” (Medchemcomm, 2016).

Sequences of proteins named here, by UniProt entry; tags and fusion partners are left off.
UniProt Q07820, whole entry: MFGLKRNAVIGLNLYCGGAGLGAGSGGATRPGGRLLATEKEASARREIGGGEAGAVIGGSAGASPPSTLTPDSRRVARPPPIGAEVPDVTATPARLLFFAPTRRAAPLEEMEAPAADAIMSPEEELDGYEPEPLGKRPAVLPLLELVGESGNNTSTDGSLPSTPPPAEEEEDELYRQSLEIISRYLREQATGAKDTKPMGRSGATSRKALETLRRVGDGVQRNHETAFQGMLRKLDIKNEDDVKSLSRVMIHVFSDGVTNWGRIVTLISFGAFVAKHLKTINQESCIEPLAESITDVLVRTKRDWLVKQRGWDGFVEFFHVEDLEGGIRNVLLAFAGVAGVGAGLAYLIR
UniProt P10415, whole entry: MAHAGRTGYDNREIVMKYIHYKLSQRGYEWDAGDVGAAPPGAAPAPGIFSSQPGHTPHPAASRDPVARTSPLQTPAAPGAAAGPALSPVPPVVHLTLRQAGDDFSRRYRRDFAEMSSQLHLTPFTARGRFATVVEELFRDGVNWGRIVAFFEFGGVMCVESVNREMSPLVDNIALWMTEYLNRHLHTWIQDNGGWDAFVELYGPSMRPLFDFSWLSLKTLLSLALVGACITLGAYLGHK

Columns and labels:
[1] = target: Induced myeloid leukemia cell differentiation protein Mcl-1 (Homo sapiens, UniProt Q07820); test: Binding affinity to MCL1 (unknown origin) by fluorescence polarization assay
[2] = target: Apoptosis regulator Bcl-2 (Homo sapiens, UniProt P10415); test: Binding affinity to BCL2 (unknown origin) by fluorescence polarization assay

Row | IC50 [1] | Ki [2] | Structure (SMILES)
1 | > 1 µM |  | CN(C)CC[C@H](CSc1ccccc1)Nc1ccc(S(=O)(=O)NC(=O)c2ccc(N3CCN(Cc4ccccc4-c4ccc(Cl)cc4)CC3)cc2)cc1[N+](=O)[O-] [ABT 737]
2 |  | < 0.001 µM | CC1(C)CCC(c2ccc(Cl)cc2)=C(CN2CCN(c3ccc(C(=O)NS(=O)(=O)c4ccc(N[C@H](CCN5CCOCC5)CSc5ccccc5)c(S(=O)(=O)C(F)(F)F)c4)cc3)CC2)C1 [NAVITOCLAX]
